Only a part is listed here, and it is no random draw. Calls of active or inactive are those of the source.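 The calls were made as follows: active = average inhibition of at least 30% in the single-concentration confirmation test; inactive = the rest.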
molecular target: DNA (cytosine-5)-methyltransferase 1 (Homo sapiens) (UniProt P26358); experiment: DNMT1 methyltransferase inhibitor retest, confirmation, biochemical, molecular beacon, fluorescence, single concentration (AID 602385); conditions: DNMT1 molecular beacon HinP1I cleavage, at 10 µM, hits give high values

Amino acid sequences for entries named in this document (tags omitted). A change or cut given only in a name is not applied to a line headed by its entry.
UniProt P26358: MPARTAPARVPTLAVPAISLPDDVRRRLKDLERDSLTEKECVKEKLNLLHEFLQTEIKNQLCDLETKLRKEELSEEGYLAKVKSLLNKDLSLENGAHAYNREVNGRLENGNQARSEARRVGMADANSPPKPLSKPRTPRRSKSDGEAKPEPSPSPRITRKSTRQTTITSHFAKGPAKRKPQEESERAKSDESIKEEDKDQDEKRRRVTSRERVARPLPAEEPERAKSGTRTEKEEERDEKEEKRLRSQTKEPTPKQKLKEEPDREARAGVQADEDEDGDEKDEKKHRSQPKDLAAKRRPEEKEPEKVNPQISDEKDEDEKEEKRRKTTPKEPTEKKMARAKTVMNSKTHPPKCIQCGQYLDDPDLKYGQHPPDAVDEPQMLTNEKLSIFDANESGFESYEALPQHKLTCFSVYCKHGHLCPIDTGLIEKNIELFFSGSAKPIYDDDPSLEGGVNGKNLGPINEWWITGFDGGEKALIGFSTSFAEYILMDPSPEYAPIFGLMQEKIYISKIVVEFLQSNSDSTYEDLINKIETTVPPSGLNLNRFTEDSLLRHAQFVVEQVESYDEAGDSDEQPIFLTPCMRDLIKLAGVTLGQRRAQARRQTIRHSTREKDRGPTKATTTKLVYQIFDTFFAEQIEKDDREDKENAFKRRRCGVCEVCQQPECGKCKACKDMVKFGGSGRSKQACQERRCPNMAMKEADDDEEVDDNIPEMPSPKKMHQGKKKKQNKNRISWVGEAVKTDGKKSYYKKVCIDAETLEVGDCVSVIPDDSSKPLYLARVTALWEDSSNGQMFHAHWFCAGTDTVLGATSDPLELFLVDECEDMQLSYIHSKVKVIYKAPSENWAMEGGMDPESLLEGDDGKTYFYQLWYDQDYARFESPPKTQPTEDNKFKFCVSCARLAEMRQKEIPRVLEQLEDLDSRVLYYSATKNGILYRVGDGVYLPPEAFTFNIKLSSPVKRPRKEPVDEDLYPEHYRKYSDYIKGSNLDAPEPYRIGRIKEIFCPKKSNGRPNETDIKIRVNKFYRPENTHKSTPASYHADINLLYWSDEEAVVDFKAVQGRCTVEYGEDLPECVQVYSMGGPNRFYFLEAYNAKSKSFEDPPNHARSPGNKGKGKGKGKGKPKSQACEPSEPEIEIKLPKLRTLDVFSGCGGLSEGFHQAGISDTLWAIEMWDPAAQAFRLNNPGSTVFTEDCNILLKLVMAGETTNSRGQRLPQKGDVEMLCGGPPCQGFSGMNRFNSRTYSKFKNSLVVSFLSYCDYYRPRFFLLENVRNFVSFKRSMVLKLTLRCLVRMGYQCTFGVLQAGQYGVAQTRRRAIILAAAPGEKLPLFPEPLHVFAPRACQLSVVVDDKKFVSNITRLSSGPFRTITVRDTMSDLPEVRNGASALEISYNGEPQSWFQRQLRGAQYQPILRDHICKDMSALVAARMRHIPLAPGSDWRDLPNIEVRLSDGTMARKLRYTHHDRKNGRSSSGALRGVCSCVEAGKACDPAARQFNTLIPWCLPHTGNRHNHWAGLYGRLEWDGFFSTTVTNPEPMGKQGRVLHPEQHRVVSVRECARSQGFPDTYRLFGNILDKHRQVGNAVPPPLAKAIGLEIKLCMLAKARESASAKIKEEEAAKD

| Compound | inhibition |
| --- | --- |
| Nc1cccc2ccc([As](=O)(O)O)cc12 | inactive: 5.76% |
| Nc1cccc2c([As](=O)(O)O)cccc12 | inactive: 1.56% |

From PubChem BioAssay AID602385 (Sanford-Burnham Center for Chemical Genomics, 2012)
